Results taken from patent US20150219624A1, “METHODS FOR IDENTIFYING ANTI-CANCER COMPOUNDS” (MEMORIAL SLOAN KETTERING CANCER CENTER, priority 2013, published 2015).
Where “and” joins values, the source holds several entries; their conditions need not be identical. Equal values may be shown once.

Test: In vivo toxicity studies (body and organ weights, hematology, clinical chemistry, histopathology)
Experimental: Toxicity studies. Eight week-old C57Bl/6NTac female mice were randomly assigned to either control or treatment groups. Each treatment group received one daily dose of test article through i.p. injection over 5 consecutive days. Toxicity was monitored by weight loss and daily clinical observation for the 14 days following test article administration. 24 hours after the last test article administration 4 mice in each group were sacrificed and clinical chemistry, hematology and tissue specific histopathology were done at autopsy. The remaining mice (n=2 per group) were kept under observation for an additional 13 days; at that point all mice were sacrificed and clinical chemistry, hematology and tissue specific histopathology were done at time of autopsy.
D) KOPT-K1 xenograft studies.

[1] = 0.2 mg/kg Female, Day 19, individual animals
[2] = 0.2 mg/kg, female, Day 5, individual animals

Substance: (±)-CR-31-B
- Na/K, Mean (0.2 mg/kg Female, Day 5, group mean, N 4): 35.5 Ratio
- Na/K, Mean (0.2 mg/kg Female, Day 19, group mean, N 2): 39.5 Ratio
- 2D. Individual chemistry, column 9 (head not shown; probably A/G ratio) [1]: 1.6
- Na/K [1]: 42 Ratio and 37 Ratio
- A/G Ratio % ChVh (0.2 mg/kg, female, Day 5, % change of mean vs vehicle): 0.0%
- A/G Ratio (0.2 mg/kg, female, Day 5, group mean): 1.7
- A/G Ratio [2]: 1.8 and 1.7 (2×) and 1.5
- Na/K [2]: 33 Ratio and 37 Ratio and 34 Ratio and 38 Ratio
